## Experimental melting point values from OPERA 2.9

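These are experimental values that the OPERA curators gathered from public databases to train and test their QSAR models. The files give a single number for a compound and property, which may rest on several reports. Conditions of the individual experiments are not part of the data. A value may pool stereoisomers or salt forms, and the file does not say which form was measured. Some upstream entries may be estimates or bounds without being marked so.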

Melting points are in °C. The databases behind each value are named after "via".

| SMILES | melting point (°C) | via |
|---|---|---|
| Cn1c(-c2ccccc2)c(C=O)c2ccccc21 | 126 | OCHEM |
| CS(=O)(=O)c1nn2ccccc2c1[N+](=O)[O-] | 181 | eChemPortal |
| Cc1ccccc1-c1csc(=N)[nH]1 | 81 | OCHEM |
| CCCOc1ccc(OCC(=O)O)cc1 | 107 | OCHEM |
| Nc1ccc(OCc2cccs2)cc1 | 62 | OCHEM |
| CSCC[C@@H](NC(=O)OC(C)(C)C)C(=O)O | 48.5 | OCHEM |
| CCOC(=O)N1CCNC(c2ccccc2)C1 (stereo not drawn) | 62.5 | OCHEM |
| O=C(Cc1nc2ccccc2s1)c1ccccc1 | 114 | OCHEM |
| Nc1ncc(-c2ccccc2)s1 | 199 | OCHEM |
| Cc1ccc2c(O)c(C(=O)O)cnc2n1 | 280 | OCHEM |
| COc1nc2ccc(Br)cc2cc1[C@@H](c1ccccc1)[C@@](O)(CCN(C)C)c1cccc2ccccc12 | 118 | PubChem |
| COc1cc(N)c([N+](=O)[O-])cc1OC | 175 | OCHEM |
| O=C(O)c1cc(S(=O)(=O)Cl)c(Cl)cc1Cl | 160 | OCHEM |
| CCCn1cc[nH]c1=S | 120 | OCHEM |
| O=P(O)(O)CCC(F)(F)C(F)(F)C(F)(F)C(F)(F)C(F)(F)C(F)(F)C(F)(F)C(F)(F)F | 182 | ChemicalBook |
| COc1ccc(S(=O)(=O)Cl)cc1Cl | 81 | OCHEM |
| O=C(O)C1CCCN1C(=O)C12CC3CC(CC(C3)C1)C2 (stereo not drawn) | 194 | OCHEM |
| CCCCNC(=O)OCC | -22 | OCHEM |
| O=C(O)c1cc(Cl)n[nH]c1=O | 213 | OCHEM |
| O=C1C=CC(=O)N1c1ccc(F)c(Cl)c1 | 160 | OCHEM |
| O=Cc1cc(Br)c2c(c1)OCCO2 | 100 | OCHEM |
| O=CNc1cccc(O)c1 | 116 | OCHEM |
| COCc1cccc(C(=O)O)c1 | 65 | OCHEM |
| CCCCCCOc1ccc(C=O)cc1OC | 40 | OCHEM |
| NC(=O)NC(Cc1ccccc1)C(=O)O (stereo not drawn) | 187 | OCHEM |
| O=C(O)c1ccc(Br)c(S(=O)(=O)Cl)c1 | 182 | OCHEM |
| COc1ccc(S(N)(=O)=O)cc1OC | 136 | OCHEM |
| O=c1nc(Cl)sc2ccccc12 | 109 | OCHEM |
| Nc1cccc(-c2nc3ccccc3s2)c1 | 139 | OCHEM |
| O=C(O)c1cc2c(F)cccc2[nH]1 | 210 | OCHEM |
| COc1c(OC)c(OC(C)=O)c2cc(Br)ccc2c1OC(C)=O | 102 | OCHEM |
| CC(=O)c1ccc2c3c(cccc13)CC2 | 59 | OCHEM |
| Clc1ncnc2c1oc1ccccc12 | 145 | OCHEM |
| S=c1[nH]nc(C2COc3ccccc3O2)o1 (stereo not drawn) | 153 | OCHEM |
| BrCCC12CC3CC(CC(C3)C1)C2 | 57 | OCHEM |
| CCOC(=O)C(C[C@]1(CC)CCCN2CCc3c([nH]c4ccccc34)[C@@H]21)=NO | 168 | eChemPortal |
| Oc1ccc(SCCC(F)(F)C(F)(F)C(F)(F)C(F)(F)C(F)(F)C(F)(F)C(F)(F)C(F)(F)F)cc1 | 92.5 | ChemicalBook |
| CS(=O)(=O)c1cc(C(=O)O)ccc1Cl | 217 | OCHEM |
| COc1ccc(C=O)cc1OCC(C)C | 41 | OCHEM |
| CCNC(=O)CN1CCNCC1 | 84 | OCHEM |
| Nn1cnnc1-c1ccccc1 | 116 | OCHEM |
| O=C(O[C@@H]1CO[C@@H]2OCC[C@@H]21)ON1C(=O)CCC1=O | 137.9 | eChemPortal |
| O=C(Nc1ccc(O)cc1)c1ccco1 | 219 | OCHEM |

Extract of 4 entries:

{"smiles": "O=c1nc(Cl)sc2ccccc12", "melting point (°C)": "109", "via": "OCHEM"}
{"smiles": "O=P(O)(O)CCC(F)(F)C(F)(F)C(F)(F)C(F)(F)C(F)(F)C(F)(F)C(F)(F)C(F)(F)F", "melting point (°C)": "182", "via": "ChemicalBook"}
{"smiles": "COc1ccc(S(=O)(=O)Cl)cc1Cl", "melting point (°C)": "81", "via": "OCHEM"}
{"smiles": "COc1c(OC)c(OC(C)=O)c2cc(Br)ccc2c1OC(C)=O", "melting point (°C)": "102", "via": "OCHEM"}

Source: data files of OPERA 2.9 (Mansouri et al.), github.com/kmansouri/OPERA.